{
  "source": "patent US20120135089A1",
  "about": "“E3 LIGASE INHIBITORS” (priority 2009, published 2012)",
  "system": "U2OS (p53 wild-type) and H1299 (p53 null) cells",
  "assay": "combination viability assay, excess over Bliss independence",
  "assay_type": "cell-based, human",
  "conditions": "U2OS and H1299, 48 hours",
  "data": [
    {"substance": "Nutlin-3", "values": [
      {"measurement": "synergy with camptothecin or etoposide on viability", "result": "synergy with camptothecin and etoposide only in the p53-wild-type cell line"}
    ]}
  ]
}
